pEC50: −log10 of the molar value. Where a name gives a salt, the structure may show the parent alone.
Key:
dopamine release = assay: cells; assay type: cell-based; conditions: for amounts causing muscle effects and effects upon ganglia relative to those required to cause dopamine release: selectivity of dopamine release over muscle and ganglion effects
[1] = target: T1, muscle-type nicotinic acetylcholine receptors (Homo sapiens, UniProt P02708+P07510+Q07001); assay type: cell-based
T1 construct: endogenous in cells; host or cells: TE671/RD (own knowledge of the cited US 5,597,919)

Sequences of proteins named here, by UniProt entry; tags and fusion partners are left off. Residues count along the entry.
UniProt P02708, 21-457: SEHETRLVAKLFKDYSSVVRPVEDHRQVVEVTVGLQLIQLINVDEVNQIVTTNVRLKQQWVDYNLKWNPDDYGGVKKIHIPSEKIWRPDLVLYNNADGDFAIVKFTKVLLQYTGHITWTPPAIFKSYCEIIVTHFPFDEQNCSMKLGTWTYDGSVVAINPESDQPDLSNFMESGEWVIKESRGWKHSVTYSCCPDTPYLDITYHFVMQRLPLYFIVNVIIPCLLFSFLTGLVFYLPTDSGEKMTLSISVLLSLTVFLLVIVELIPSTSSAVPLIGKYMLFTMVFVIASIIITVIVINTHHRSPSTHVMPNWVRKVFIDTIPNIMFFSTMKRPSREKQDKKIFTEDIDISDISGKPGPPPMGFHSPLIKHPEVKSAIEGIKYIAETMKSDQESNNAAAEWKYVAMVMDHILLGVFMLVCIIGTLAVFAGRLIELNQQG
UniProt P07510, 23-517: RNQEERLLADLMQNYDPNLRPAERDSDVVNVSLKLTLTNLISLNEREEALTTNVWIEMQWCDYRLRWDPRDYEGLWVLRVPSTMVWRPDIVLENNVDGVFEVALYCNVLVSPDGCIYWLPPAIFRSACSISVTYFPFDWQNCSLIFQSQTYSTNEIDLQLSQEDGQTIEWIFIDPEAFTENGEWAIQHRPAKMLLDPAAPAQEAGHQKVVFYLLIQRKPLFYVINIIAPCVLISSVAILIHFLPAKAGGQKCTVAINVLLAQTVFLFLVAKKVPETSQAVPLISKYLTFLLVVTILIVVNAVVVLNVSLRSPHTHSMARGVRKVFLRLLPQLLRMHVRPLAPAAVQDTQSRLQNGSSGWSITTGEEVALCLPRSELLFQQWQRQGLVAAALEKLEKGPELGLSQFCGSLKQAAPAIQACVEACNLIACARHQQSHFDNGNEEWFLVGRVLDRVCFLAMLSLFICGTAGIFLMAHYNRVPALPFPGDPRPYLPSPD
UniProt Q07001, 22-517: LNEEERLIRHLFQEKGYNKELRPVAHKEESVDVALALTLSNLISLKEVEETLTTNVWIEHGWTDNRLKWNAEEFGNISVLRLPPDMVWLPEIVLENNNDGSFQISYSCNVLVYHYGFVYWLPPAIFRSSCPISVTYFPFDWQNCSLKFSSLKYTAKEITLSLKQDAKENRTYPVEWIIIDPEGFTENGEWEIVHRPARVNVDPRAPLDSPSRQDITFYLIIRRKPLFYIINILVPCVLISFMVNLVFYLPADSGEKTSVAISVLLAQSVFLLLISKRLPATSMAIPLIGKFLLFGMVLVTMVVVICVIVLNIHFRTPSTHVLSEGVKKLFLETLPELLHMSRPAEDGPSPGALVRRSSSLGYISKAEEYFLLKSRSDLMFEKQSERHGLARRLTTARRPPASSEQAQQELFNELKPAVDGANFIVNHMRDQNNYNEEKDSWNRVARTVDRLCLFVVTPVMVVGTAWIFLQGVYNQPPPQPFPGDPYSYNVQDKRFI

Compound | amounts causing muscle effects and effects upon ganglia relative to those required to cause dopamine release (dopamine release) | Muscle Effect Ecmax [1] | Dopamine Release Ecmax (dopamine release) | pEC50 (dopamine release; read-out: Dopamine Release EC50)
Brc1cncc(C2CC3CCN2CC3)c1 (racemic) [Sample No. 2] | many times | – | – | –
CC(C)Oc1cncc(C2CC3CCN2CC3)c1 (centres unmarked) [Sample No. 8, 5-(1-azabicyclo[2.2.2]oct-2-yl-3-(isopropyloxy)pyridinedihydrochloride] | many times | 115% | 31% | 7.51

— patent US6525065B1, “Pharmaceutical compositions and methods for effecting dopamine release” (priority 1997, dated 2003)
